The values that follow come from US6677333B1, “2H-phthalazin-1-one derivatives and drug containing its derivatives as active ingredient” (Ono Pharmaceutical Co., Ltd., priority 1999, dated 2004).

The chains behind the UniProt entries cited, without tags or fusion partners.
UniProt P09874, whole entry: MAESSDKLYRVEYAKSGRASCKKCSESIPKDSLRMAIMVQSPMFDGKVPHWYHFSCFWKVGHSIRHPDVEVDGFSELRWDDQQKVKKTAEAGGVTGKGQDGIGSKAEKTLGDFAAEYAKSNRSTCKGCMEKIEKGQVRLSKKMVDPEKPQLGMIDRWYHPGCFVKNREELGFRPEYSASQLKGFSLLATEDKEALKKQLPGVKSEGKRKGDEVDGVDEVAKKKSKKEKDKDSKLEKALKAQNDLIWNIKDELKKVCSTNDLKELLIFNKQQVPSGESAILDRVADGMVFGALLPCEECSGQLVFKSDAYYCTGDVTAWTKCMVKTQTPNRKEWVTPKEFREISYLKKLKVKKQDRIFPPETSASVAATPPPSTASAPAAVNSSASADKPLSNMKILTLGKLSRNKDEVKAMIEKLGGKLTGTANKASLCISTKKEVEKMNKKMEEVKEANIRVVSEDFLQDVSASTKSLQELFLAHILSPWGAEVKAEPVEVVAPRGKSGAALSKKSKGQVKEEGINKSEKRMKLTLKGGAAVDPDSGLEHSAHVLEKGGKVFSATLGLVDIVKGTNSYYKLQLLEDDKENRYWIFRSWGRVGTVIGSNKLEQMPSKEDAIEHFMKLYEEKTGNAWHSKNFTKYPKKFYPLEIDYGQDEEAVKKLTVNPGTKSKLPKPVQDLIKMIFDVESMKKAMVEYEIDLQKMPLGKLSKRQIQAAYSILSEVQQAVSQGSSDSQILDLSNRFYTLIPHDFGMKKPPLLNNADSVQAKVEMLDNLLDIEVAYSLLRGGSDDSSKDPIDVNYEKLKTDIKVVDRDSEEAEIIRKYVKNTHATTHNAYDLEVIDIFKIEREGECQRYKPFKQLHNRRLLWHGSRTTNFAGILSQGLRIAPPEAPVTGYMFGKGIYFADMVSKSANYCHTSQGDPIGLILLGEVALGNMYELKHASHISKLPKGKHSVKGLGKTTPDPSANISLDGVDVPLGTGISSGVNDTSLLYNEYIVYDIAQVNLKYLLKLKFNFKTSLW

For the assay, the target named is PARP (Homo sapiens, UniProt P09874). Put plainly: Enzyme assay in vitro (PARP inhibitory activity). The conditions noted are these: PARP (TREVIGEN), activated DNA, 10 minutes reaction, 100% of control = distilled water; example 5 tested as trifluoro acetate; tested form: hydrochloride and methanesulfonate both. As to the method: The below procedure was carried out with 96 well plate. The reaction mixture contained 50 mM Tris/HCl (pH 8.0, WAKO), 10 mM MgCl2, 5 mM dithiothreitol (sigma), and 0.5 mg/mL activated DNA in 80 μL. The 10 μL of test compound was added to the reaction mixture and the reaction was started by addition of 10 μL of […] PARP (TREVIGEN). The reaction was terminated at 10 minutes by addition of 100 μL of 20% trichloroacetic acid. The reaction product was collected on a glass fiber filter (GF/C, PACKARD). The radioactivity was measured by topcount (PACKARD). Inhibitory activity of the compound was represented by 50% inhibitory concentration (IC50) calculated 100% of control (distilled water).

What is called IC50 is the concentration needed to halve the response being measured. High values mean weaker potency in that assay, low ones greater potency in that assay.

`O=C(CCCCN1CCCC1)Nc1cccc(-c2n[nH]c(=O)c3ccccc23)c1` showed an IC50 of 0.088 µM.
